From ChEMBL document CHEMBL5543060, “Technologies of targeting histone deacetylase in drug discovery: Current progress and emerging prospects” (Eur J Med Chem, 2023) come the findings set out here.

The chains behind the UniProt entries cited, without tags or fusion partners.
UniProt Q13547, whole entry: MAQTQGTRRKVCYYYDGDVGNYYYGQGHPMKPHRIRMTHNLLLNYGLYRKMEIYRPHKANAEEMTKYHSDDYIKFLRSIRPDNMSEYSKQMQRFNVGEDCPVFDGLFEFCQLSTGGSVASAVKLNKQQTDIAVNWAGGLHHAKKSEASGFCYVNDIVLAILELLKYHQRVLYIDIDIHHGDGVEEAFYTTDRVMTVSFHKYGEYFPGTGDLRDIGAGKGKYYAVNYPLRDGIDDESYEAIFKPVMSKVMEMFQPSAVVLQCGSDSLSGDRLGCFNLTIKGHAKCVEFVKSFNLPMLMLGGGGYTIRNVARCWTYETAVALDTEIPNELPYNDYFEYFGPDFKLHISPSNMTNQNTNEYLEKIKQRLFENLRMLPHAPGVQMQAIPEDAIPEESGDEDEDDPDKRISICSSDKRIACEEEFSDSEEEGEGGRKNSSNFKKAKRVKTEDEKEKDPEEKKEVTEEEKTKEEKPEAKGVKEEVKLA

In the test the target is Histone deacetylase 1 (Homo sapiens, UniProt Q13547). Briefly: Inhibition of human recombinant HDAC1 using Ac-RHKK(Acetyl)-AMC peptide as fluorogenic substrate pre-incubated for 30 mins followed by substrate addition and measured for 60 mins by fluorescence based analysis.

The term IC50 denotes the concentration needed to halve the response being measured.

For `C[C@H](NC(=O)c1nc(-c2ncc(-c3ccccc3)s2)sc1C1CC1)c1ccc(C(=O)NO)cc1`, the IC50 is 4 nM.
